# Measurements as given in PubChem BioAssay AID488890 (Southern Research Specialized Biocontainment Screening …, 2010).
# This is one part of the list. Some of these compounds have results that are not shown, active ones among them. Records with an inconclusive call do not appear. How the calls were made is not given here.
# Test: growth inhibition of non-replicating M. tuberculosis (AID 488890);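 further: plate controls were DMSO cells for no effect and high antibiotic wells for full effect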
# Details: Mycobacterium tuberculosis non-replicating, at 25 µM, stronger effect = higher value
row,SMILES,inhibition [%]
1,Cc1ccc(C(=O)NCC2(N3CCCCC3)CCCCC2)cc1,40.9
2,CCN(CC)CC(C)C(C)OC(=O)C(O)(c1ccccc1)c1ccccc1 (centres undefined),-0.31
3,COc1cc(SC)ccc1C(=O)NCC1(N(C)C)CCCCC1,-3.47
4,CC(C)N1C(=O)CC2(CCN(CCOC(=O)C(O)(c3ccccc3)c3ccccc3)CC2)C1=O,8.98
5,CN1[C@@H]2CC[C@H]1CC(OC(=O)C(O)(c1ccccc1)c1ccccc1)C2 (some centres undefined),-7.45
6,O=C(NCC1(N2CCCCC2)CCCCC1)c1cc([N+](=O)[O-])ccc1Cl,35.6
7,COc1ccc(C(=O)NCC2(N(C)C)CCCCC2)cc1,1.78
8,CCN1CCCC(OC(=O)C2(O)c3ccccc3C=Cc3ccccc32)C1 (centres undefined),-1.55
9,Cc1cc(C(=O)NCC2(N3CCCCC3)CCCCC2)ccc1[N+](=O)[O-],7.46
10,O=C(NCC1(N2CCCCC2)CCCCC1)c1cccc(Br)c1,10
11,C=CCN1CCN(CCOC(=O)C(O)(c2ccccc2)c2ccccc2)CC1,-2.8
12,O=C(NCC1(N2CCCCC2)CCCCC1)c1cc(F)c(F)cc1Cl,-6.53
13,Cc1ccccc1C(=O)NCC1(N2CCCCC2)CCCCC1,31.3
14,CN(C)c1ccc(C(=O)NCC2(N(C)C)CCCCC2)cc1,-7.01
15,CN(C)C1CCCC1OC(=O)C(O)(c1ccccc1)c1ccccc1 (centres undefined),-3.29
16,O=C(NCC1(N2CCCCC2)CCCCC1)c1cccc(Cl)c1,-4.89
17,COc1cccc(C(=O)NCC2(N3CCCCC3)CCCCC2)c1,17.3
18,COc1ccc(Cl)cc1C(=O)NCC1(N(C)C)CCCCC1,-3.35
19,COc1cc(C(=O)NCC2(N(C)C)CCCCC2)c([N+](=O)[O-])cc1OC,-1.36
20,CN(C)C1(CNC(=O)c2ccc(Br)cc2)CCCCC1,68.5
21,CC(C)Oc1ccc(C(=O)NCC2(N(C)C)CCCCC2)cc1,0.79
22,CN(C)c1cccc(C(=O)NCC2(N(C)C)CCCCC2)c1,-20.4
23,COc1ccc(Br)c(C(=O)NCC2(N3CCCCC3)CCCCC2)c1,48
24,O=C(OC1CN2CCC1CC2)C(CO)(c1ccccc1)c1ccccc1 (centres undefined),-9.76
